The values that follow come from PubChem BioAssay AID720648 (The Scripps Research Institute Molecular Screening Center, 2013).

Sequences of proteins named here, by UniProt entry; tags and fusion partners are left off. Residues count along the entry.
UniProt P78536, 215-824 limits assumed: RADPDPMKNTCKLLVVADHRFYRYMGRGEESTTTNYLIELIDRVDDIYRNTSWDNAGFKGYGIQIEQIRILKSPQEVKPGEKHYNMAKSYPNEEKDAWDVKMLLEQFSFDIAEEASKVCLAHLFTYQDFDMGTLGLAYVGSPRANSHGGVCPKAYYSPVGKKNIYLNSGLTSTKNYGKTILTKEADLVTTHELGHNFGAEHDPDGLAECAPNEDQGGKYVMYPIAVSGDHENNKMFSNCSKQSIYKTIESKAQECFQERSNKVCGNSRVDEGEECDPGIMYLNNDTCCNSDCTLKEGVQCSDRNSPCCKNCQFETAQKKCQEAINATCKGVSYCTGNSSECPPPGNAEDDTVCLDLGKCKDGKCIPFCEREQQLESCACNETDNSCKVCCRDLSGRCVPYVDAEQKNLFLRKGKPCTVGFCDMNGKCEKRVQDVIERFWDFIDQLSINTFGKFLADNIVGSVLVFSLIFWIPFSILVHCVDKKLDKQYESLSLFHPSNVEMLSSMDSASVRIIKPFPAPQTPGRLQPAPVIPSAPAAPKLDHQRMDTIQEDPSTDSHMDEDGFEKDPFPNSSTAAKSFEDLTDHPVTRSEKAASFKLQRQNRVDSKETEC

The list shows a part of the results, in another mix than the full data. The source made the active and inactive calls.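 How the source made its calls: active means inhibition above the mean of compounds lying between control limits plus 3 SD, set per campaign (cut at about 8.5% in these data); inactive means the rest.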

In the assay the target is Disintegrin and metalloproteinase domain-containing protein 17 (Homo sapiens) (UniProt P78536). The experiment in a line: inhibition of ADAM17 peptide cleavage – biochemical, QFRET, primary screen (AID 720648).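 Further: 0% = DMSO-only wells as the low control.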 Particulars: recombinant ADAM17, EDANS/DABCYL FRET peptide cleavage; at 6.95 µM; hits give high values.
Turning to `CCC(=O)N(c1ccccc1)C1(COC)CCN(CCn2nnn(CC)c2=O)CC1`, the inhibition was inactive: 1.21%.

Consider `CCC(=O)N(c1ccccc1)C1(COC)CCN(CCc2cccs2)CC1`, for which the inhibition was inactive: -0.49%.
